Molecules are shown by their SMILES.

The text below walks through data of US20250234824A1, “MARKERS ASSOCIATED WITH S[…]” (Syngenta Crop Protection AG, priority 2022, published 2025).

This experiment has as its system maize haploids. The experiment is described as follows: Colchicine doubling treatment of BC3 haploids, pollen and kernel phenotypes in the field. The experiment is classed as in vivo. To be noted: BC3 recurrent parent Line 10; SCD Allele; colchicine-treated haploids. An excerpt:
To test whether the SCD-QTL1 could be used in combination with a chemical doubling treatment, such as colchicine, and have an additive effect on haploid male fertility, we took the 17 elite BC2 lines from Example 6 through one additional backcross generation to produce a BC3. Genotyping was used to identify heterozygotes at SCD-QTL1, and those materials were then crossed by a haploid inducer, embryos isolated from the immature ears, and haploids regenerated for transplant into the field. Immediately after isolation, embryos from each of the 17 BC3 populations were split into 2 treatment groups. […] Thus, there were 4 treatment groups to compare within each elite BC3 population: (1) SCD-QTL1 with colchicine (haploid male fertility plus colchicine), (2) unfavorable QTL allele with colchicine (positive control), (3) SCD-QTL1 without colchicine (haploid male fertility alone), (4) and unfavorable QTL allele without colchicine (negative control). All lines were planted across three replications of the trial over the course of approximately 6 months, and the data was pooled for analysis.
In this trial, sample sizes were large enough (minimum of 50 haploids per treatment group) to enable statistical analysis to confirm whether observed differences in kernel set between groups with and without the favorable allele of SCD-QTL1 were statistically significant using a Student's T-Test (Table 8). […]

In the case of `COc1cc2c(c(OC)c1OC)-c1ccc(OC)c(=O)cc1[C@@H](NC(C)=O)CC2` [Colchicine, colchicine], the “Percent of Plants with Ears >5 kernels” value was determined as 34.2%.
